The values that follow come from patent US20070027109A1 (priority 2002, published 2007).

Data set [1] relates to human peripheral blood mononuclear cells (PBMCs). It is filed as cell-based. On the procedure: The final volume per well was 200 μL. […] Wells were also examined microscopically and any abnormalities noted.
At assay termination the assay plates were stained with the soluble tetrazolium-based dye MTS (CellTiter96® Reagent Promega) to determine cell viability and quantify compound toxicity. […] At termination of the assay 20 μL of MTS reagent was added per well and incubated for 4 h at 37° C. Adhesive plate sealers were used in place of the lids, the sealed plate was inverted several times to mix the soluble formazan product and the plate was read spectrophotometrically at 490 nm with a Molecular Devices Vmax plate reader.

Another data set deals with monocyte/macrophages. Kind of data set: MTS staining for cell viability, monocyte/macrophages. The data set is classed as cell-based, human. The source says: Peripheral blood monocytes were isolated from normal HIV-1 negative donors by plastic adherence following ficoll hypaque purification of the buffy coat, as described above for PBMCs. In many cases the same donor used to produce the PBMC populations was also used to produce monocyte/macrophages, however unlike PBMC population monocyte/macrophage, donors were never pooled. […] The monocytes were released from the plastic by vigorous pipetting with Ca^2+ and Mg^2+ free PBS. […] The monocytes (1×10^5 per 0.2 cm well) were then cultured for six days, allowing maturation of the cells to a macrophagelike phenotype. […] Cultures were washed a final time by media removal 24 hours post infection, fresh compound added and the cultures continued for an additional six days. The assays were preformed using a standardized microtiter plate format, which uses only the inner 60 wells of a 96 well plate for assay purposes. The outer rows contain media and acts an a evaporation barrier. […] HIV p24 antigen content to assess virus replication was measured at assay termination by a commercially available p24 ELISA assay (Coulter) on cell-free supernatants, and compound cytotoxicity by MTS dye reduction. AZT, HIV-1 reverse nucleoside transcriptase inhibitor and dextransulfate, an attachment inhibitor, were used as positive control compounds and run in parallel with each determination. […]

Turning to “sulfated dextran, 9.5% sulfur, molecular weight 30,000 [DES 9.5% Sulfation]”, the TC50 (in data set [1]; with monocyte/macrophages) was 100 µg/mL throughout.

Regarding “sulfated dextran, 12.2% sulfur, molecular weight 36,000 [DES 12.5% Sulfation]”, the TC50 (in data set [1]; with monocyte/macrophages) was 100 µg/mL throughout.
